# Assay results taken from PubChem BioAssay AID504660 (National Center for Advancing Translational Sciences (NCATS), 2011).
# Chains of the proteins cited; added tags and fusions are not shown.
# UniProt P21728, whole entry: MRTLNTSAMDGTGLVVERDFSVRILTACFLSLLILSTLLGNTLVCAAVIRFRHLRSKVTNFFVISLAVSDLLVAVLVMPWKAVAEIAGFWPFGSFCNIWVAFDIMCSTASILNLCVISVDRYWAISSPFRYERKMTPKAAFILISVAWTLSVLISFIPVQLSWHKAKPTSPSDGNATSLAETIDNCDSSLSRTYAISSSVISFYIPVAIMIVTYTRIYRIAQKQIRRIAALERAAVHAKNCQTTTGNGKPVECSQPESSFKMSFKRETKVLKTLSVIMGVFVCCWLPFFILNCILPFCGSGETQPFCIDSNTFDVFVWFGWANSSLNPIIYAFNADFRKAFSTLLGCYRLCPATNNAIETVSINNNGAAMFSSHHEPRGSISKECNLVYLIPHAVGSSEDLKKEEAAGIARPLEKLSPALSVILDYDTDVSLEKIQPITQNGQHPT
# The list shows a part of the results, in another mix than the full data. Activity calls are given as the source filed them. Cut-off read from the data, not from the text of the source: active = activation above about 30%; inactive = the rest.
# Target: D(1A) dopamine receptor (Homo sapiens) (UniProt P21728)
# Assay: Allosteric Agonists of the Human D1 Dopamine Receptor: qHTS; note: 0% is about no effect
# Conditions: HEK293 T-REx D1 cells, calcium flux, agonist mode; at 2 µM; stronger effect = higher value
# Excerpt: NIH Chemical Genomics Center [NCGC] NIH Molecular Libraries Probe Centers Network [MLPCN] MLPCN Grant: NS064831-01 Assay Submitter (PI): David Sibley Dopamine receptors (DARs) are involved in the etiology and/or therapy of a number of neuropsychiatric and endocrine disorders. For instance, all receptor-based antiparkinsonian drugs work via stimulating the D1 DAR subtype whereas all FDA-approved antipsychotic agents are antagonists of this receptor. […] There are three different types of allosteric modulators that we are seeking, two of which will stimulate or augment receptor signaling, allosteric agonists and potentiators, while the third, allosteric antagonists, will attenuate receptor signaling. The present primary screening assay measures compound agonism by tracking calcium flux in a […], inducible Hek293 Trex D1 cell line.
# Freshly passaged cells are plated in 1536 well black, clear bottom plates at a density of 4000 cells/well in 3 ul of complete media containing 1x tetracycline inducer. After an overnight incubation at […] in 5% CO2, cells are loaded with 2 ul of the no wash Calcium Assay Kit (ABD Bioquest) and incubated at room temperature for 30 to 90 minutes. Agonist read: A 10 cycle (1 second/cycle) baseline measurement is taken and then the FDSS online 1536 pintool delivers 23 nl of compound library (as well as dopamine controls) to the plate. The plate is measured for kinetically at 1 cycle/sec for 180 seconds and is considered to be the agonist portion of the assay (eg, compounds which activate a positive calcium response during this portion are flagged as potential agonists). Following the 180 second read, 1 ul of either an EC20 (positive modulation assay) or EC80 (negative modulation assay) is delivered by an onboard pipette head. Measurements are taken kinetically for an additional 180 seconds.
row,Compound,activation
1,CCN(CC)CCCOC(=O)C(O)(c1ccccc1)c1ccccc1,inactive: 1.41%
2,CCOC(=O)c1ccc(NP(C)(=O)Oc2ccccc2)cc1 (stereo not given),inactive: 4.61%
3,COc1ccccc1OP(C)(=O)Nc1ccc(C)cc1 (stereo not given),inactive: 0.0551%
4,Cc1ccc(NP(C)(=O)Oc2ccccc2)c(C)c1 (stereo not given),inactive: 3.92%
5,COc1ccccc1OP(C)(=O)Nc1cc(Cl)ccc1C (stereo not given),inactive: 0.531%
6,COc1ccc(OP(C)(=O)Nc2cccc(F)c2)cc1 (stereo not given),inactive: 1.13%
7,Cc1cc(C)cc(OP(C)(N)=O)c1 (stereo not given),inactive: 2.86%
8,CC(C)(C)c1ccc(OP(C)(=O)Nc2ccc(SC(F)(F)F)cc2)cc1 (stereo not given),inactive: 2.67%
9,Cc1cccc(C)c1OP(C)(N)=O (stereo not given),inactive: 4.47%
10,O=[N+]([O-])c1ccc2c(c1)C=Nc1ccccc1O2,inactive: 4.33%
11,CP(=S)(Nn1cnnc1)Oc1ccccc1 (stereo not given),inactive: 4.52%
12,COc1ccccc1OP(C)(=O)Nc1ccccc1 (stereo not given),inactive: -1.62%
13,CP(=O)(Nc1ccccc1Br)Oc1ccccc1 (stereo not given),inactive: 2.87%
14,CCOP(C)(=S)SCC(=O)NC(C)C(=O)O (stereo not given),inactive: 7.08%
15,CCOC(=O)c1ccc(NP(C)(=O)Oc2ccc(OC)cc2)cc1 (stereo not given),inactive: 3.26%
16,CP(=O)(Nc1ccccn1)Oc1ccc(Cl)cc1 (stereo not given),inactive: 0.396%
17,Cc1cccc(C)c1OP(C)(=O)Nc1ccc(SC(F)(F)F)cc1 (stereo not given),inactive: 13.6%
18,CP(=O)(Nc1ccc(SC(F)(F)F)cc1)Oc1ccc(Cl)cc1 (stereo not given),inactive: 2.79%
19,CP(=O)(Oc1ccccc1)OC(c1ccccc1)C(F)(F)F (stereo not given),inactive: 7.97%
20,CP(=O)(NC(=O)Nc1ccccc1)Oc1ccccc1 (stereo not given),inactive: 1.65%
21,CCc1ccc(OP(C)(=O)N2CCN(c3ccc([N+](=O)[O-])cc3)CC2)cc1 (stereo not given),inactive: 4.71%
22,Cc1cc(C)cc(OP(C)(=O)Nc2ccc(SC(F)(F)F)cc2)c1 (stereo not given),inactive: 6.38%
23,Cc1nc2ccc3ccccc3c2s1.O=[N+]([O-])c1cc([N+](=O)[O-])c(O)c([N+](=O)[O-])c1,inactive: -0.879%
24,O=[N+]([O-])c1cc([N+](=O)[O-])c(-n2nnc3ccccc32)c([N+](=O)[O-])c1,inactive: 0.668%
25,COc1ccccc1OP(C)(=O)Nc1c(C)cccc1C (stereo not given),inactive: 5.18%
26,CN1CCCCC1COC(=O)C1(O)c2ccccc2CCc2ccccc21 (stereo not given),inactive: 28.4%
27,CCCOc1ccc(NP(C)(=O)Oc2ccc(Cl)cc2)cc1 (stereo not given),inactive: 1.63%

row,Compound,activation
1,CP(=O)(Nc1ccc(SC(F)(F)F)cc1)Oc1ccccc1 (stereo not given),inactive: 4.21%
2,CC1=C2N=C(C=C3N=C(C(C)=C4[N-][C@@](C)([C@@H]5N=C1[C@](C)(CCC(=O)NC[C@@H](C)OP(=O)([O-])O[C@H]1[C@@H](O)[C@@H](n6cnc7cc(C)c(C)cc76)O[C@@H]1CO)[C@H]5CC(N)=O)[C@@](C)(CC(N)=O)[C@@H]4CCC(N)=O)[C@@](C)(CC(N)=O)[C@@H]3CCC(N)=O)C(C)(C)[C@@H]2CCC(N)=O.[C-]#N.[Co+3],inactive: 4.44%
3,O=[N+]([O-])c1cc([N+](=O)[O-])c(Nc2nnnn2CCO)c([N+](=O)[O-])c1,inactive: 1.05%
4,CC1=NCCc2c1[nH]c1ccccc21.O=[N+]([O-])c1cc([N+](=O)[O-])c(O)c([N+](=O)[O-])c1,inactive: 5.14%
5,Cc1cc(C)cc(OP(C)(=O)Nc2ccccn2)c1 (stereo not given),inactive: 6.74%
6,CP(=O)(Nc1cccc(Br)c1)Oc1ccccc1 (stereo not given),inactive: 8.77%
7,Cc1ccc(C)c(NP(C)(=O)Oc2ccccc2)c1 (stereo not given),inactive: 2.02%
8,COc1ccccc1OP(C)(=O)Nc1cccc(Br)c1 (stereo not given),inactive: -0.238%
9,Cc1cc(C)cc(OP(C)(=O)Nc2ccc(C)cc2C)c1 (stereo not given),inactive: 5.81%
10,CCOC(=O)c1ccc(NP(C)(=O)Oc2cc(C)cc(C)c2)cc1 (stereo not given),inactive: 22.3%
11,O=C(OCCN1CCN(CCOCc2ccccc2)CC1)C(O)(c1ccccc1)c1ccccc1,inactive: 4.82%
12,CC(C)c1ccc(OP(C)(=O)Nc2ccc(SC(F)(F)F)cc2)cc1 (stereo not given),inactive: 2.2%
13,CP(=O)(Nc1ccccc1F)Oc1ccccc1 (stereo not given),inactive: 1.2%
14,CCN(CC)CCCOC(=O)C(O)(c1ccccc1)C1CCCCC1 (stereo not given),inactive: 3.47%
15,CCCCCOc1ccc(NP(C)(=O)Oc2ccc(Cl)cc2Cl)cc1 (stereo not given),inactive: 4.22%
16,CP(=O)(Nc1ccccc1)Oc1ccc(F)cc1 (stereo not given),inactive: 2.38%
17,COc1ccc(OP(C)(=O)Nc2ccc(SC(F)(F)F)cc2)cc1 (stereo not given),inactive: -0.6%
18,CCOC(=O)c1ccc(NP(C)(=O)Oc2ccc(F)cc2)cc1 (stereo not given),inactive: 12.7%
19,Cc1cc(-c2cccc3ccccc23)c(C)cn1.O=[N+]([O-])c1cc([N+](=O)[O-])c(O)c([N+](=O)[O-])c1,inactive: 7.66%
20,O=[N+]([O-])c1ccc(OP2(=O)COCCO2)cc1 (stereo not given),inactive: 1.03%
21,COc1ccc(OP(C)(=O)Nc2cccc(Br)c2)cc1 (stereo not given),inactive: 3.66%
22,COc1ccc(NP(C)(=O)Oc2ccccc2OC)cc1 (stereo not given),inactive: 0.318%
23,CN(C)CCOC(=O)C(O)(c1ccccc1)C1CCCCC1 (stereo not given),inactive: 4.22%
24,CP(=O)(Nc1ccc2c(c1)OCCO2)Oc1ccccc1 (stereo not given),inactive: -0.101%
25,Cc1ccccc1NP(C)(=O)Nc1ccccc1C,inactive: 3.46%
26,CP(=O)(Nc1ccc(SC(F)(F)F)cc1)Oc1ccc(F)cc1 (stereo not given),inactive: 0.697%
27,CCOP(C)(=S)SCC(=O)NC(C)(CC)C(=O)O (stereo not given),inactive: 3.55%

row,Compound,activation
1,CP(=O)(Nc1ccc(Cl)cc1)Oc1ccc(F)cc1 (stereo not given),inactive: 0.782%
2,COc1ccccc1OP(C)(=O)Nc1ccccc1Br (stereo not given),inactive: 1.08%
3,CC(C)(C)c1ccc(OP(C)(=O)O)cc1,inactive: 5.69%
4,CN(C)C(=O)c1c([N+](=O)[O-])cc([N+](=O)[O-])cc1[N+](=O)[O-],inactive: 1.2%
5,CCN(CC)CC(O)COC(=O)C(O)(c1ccccc1)C1CCCCC1 (stereo not given),inactive: 8.85%
6,COc1ccc(OP(C)(=O)Nc2ccc(Br)cc2)cc1 (stereo not given),inactive: 2.83%
7,CP(=O)(Oc1ccccc1)N1CCOC1=O (stereo not given),inactive: 7.34%
8,CCc1ccc(OP(C)(=O)Nc2cccnc2)cc1 (stereo not given),inactive: 1.13%
9,COc1ccccc1OP(C)(=O)Nc1c(C)n(C)n(-c2ccccc2)c1=O (stereo not given),inactive: 1.12%
10,O=C(OCCCN1CCCC1)C(O)(c1ccccc1)C1CCCCC1 (stereo not given),active: 35.6%
11,CP(=O)(OC12CC3CC(CC(C3)C1)C2)OC12CC3CC(CC(C3)C1)C2,inactive: 18.1%
12,CCOC(=O)c1ccc(NP(C)(=O)Oc2ccc(Cl)cc2)cc1 (stereo not given),inactive: 6.35%
13,Cc1nc2ccc3ccccc3c2o1.O=[N+]([O-])c1cc([N+](=O)[O-])c(O)c([N+](=O)[O-])c1,inactive: 1.61%
14,CP(=O)(Nc1ccc(Cl)cc1Cl)Oc1ccccc1 (stereo not given),inactive: 0.228%
15,CP(=O)(OCCOc1ccccc1)OCCOc1ccccc1,inactive: 1.29%
16,Cc1cc(C)cc(OP(C)(=O)Nc2cccc(C(F)(F)F)c2)c1 (stereo not given),inactive: 2.44%
17,COc1ccc(OP(C)(=O)Nc2ccccc2Br)cc1 (stereo not given),inactive: 0.116%
18,COc1ccccc1OP(C)(=O)Nc1ccc(C)c(C)c1 (stereo not given),inactive: 0.188%
19,Cc1c(NP(C)(=O)Oc2ccc(C(C)C)cc2)c(=O)n(-c2ccccc2)n1C (stereo not given),inactive: 3.75%
20,O=[N+]([O-])c1cc([N+](=O)[O-])c(Nc2ccccn2)c([N+](=O)[O-])c1,inactive: 5.2%
21,CCc1ccc(OP(C)(=O)O)cc1,inactive: 9.27%
22,CP(=O)(Nc1ccccn1)Oc1ccccc1 (stereo not given),inactive: 1.78%
23,COc1ccccc1OP(C)(=O)Nc1ccc(C)cc1C (stereo not given),inactive: 1.17%
24,COc1ccccc1OP(C)(=O)Nc1ccc(Br)cc1 (stereo not given),inactive: 3.77%
25,CN(C)CCOC(=O)C(O)(c1ccccc1)C1CCCC1 (stereo not given),inactive: 2.42%
26,COc1ccc(OP(C)(=O)Nc2ccccn2)cc1 (stereo not given),inactive: -0.0203%
